Measured values from PubChem BioAssay AID434973 (Sanford-Burnham Center for Chemical Genomics, 2010).
The list shows a part of the results, in another mix than the full data. Active and inactive are the calls of the source.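 How the source made its calls: active means inhibition above about 50% at the single test dose (limit read from the data); inactive means the rest.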

Sequences of proteins named here, by UniProt entry; tags and fusion partners are left off. Residues count along the entry.
UniProt Q9BQF6, 706-1050 limits assumed: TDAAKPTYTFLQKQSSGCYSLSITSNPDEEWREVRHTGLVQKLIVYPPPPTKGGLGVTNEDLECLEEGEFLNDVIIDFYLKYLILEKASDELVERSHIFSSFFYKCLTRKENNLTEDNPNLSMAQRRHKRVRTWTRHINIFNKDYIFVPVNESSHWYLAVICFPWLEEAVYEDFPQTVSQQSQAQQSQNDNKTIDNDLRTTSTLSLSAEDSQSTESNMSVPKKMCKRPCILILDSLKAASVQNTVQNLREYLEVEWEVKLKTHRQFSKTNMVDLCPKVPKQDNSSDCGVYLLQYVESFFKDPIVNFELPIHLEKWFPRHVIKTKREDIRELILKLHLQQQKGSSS

Molecular target: Sentrin-specific protease 7 (Homo sapiens) (UniProt Q9BQF6)
Assay: SENP7 protease inhibitors, primary screen, biochemical, luminescence, uHTS (AID 434973);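 further: plate controls were DMSO with enzyme for no effect and no enzyme buffer wells for full effect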
Conditions: recombinant SENP7, Z-RLRGG-aminoluciferin luminescence, 40 min; at 5 µM; hits give high values

Which inhibition does the source give for CCC(=O)N(c1ccccc1)C1(COC)CCN(CCn2nnn(CC)c2=O)CC1 here?
The inhibition was inactive: -15.9%.

For CCC(=O)N(c1ccccc1)C1(COC)CCN(CCc2cccs2)CC1, which inhibition is on record?
The inhibition was inactive: -2.24%.
